Target: C-Raf FL (full-length C-Raf protein, Y340E and Y341E activating mutations) (Homo sapiens (Human), UniProt P04049, Y340E/Y341E)
Format: biochemical
Settings: AlphaScreen, 60 min pre-incubation, reaction 1 hour at room temperature; read-out: c-Raf FL IC-50

Chains of the proteins cited; added tags and fusions are not shown.
UniProt P04049, whole entry Y340E/Y341E: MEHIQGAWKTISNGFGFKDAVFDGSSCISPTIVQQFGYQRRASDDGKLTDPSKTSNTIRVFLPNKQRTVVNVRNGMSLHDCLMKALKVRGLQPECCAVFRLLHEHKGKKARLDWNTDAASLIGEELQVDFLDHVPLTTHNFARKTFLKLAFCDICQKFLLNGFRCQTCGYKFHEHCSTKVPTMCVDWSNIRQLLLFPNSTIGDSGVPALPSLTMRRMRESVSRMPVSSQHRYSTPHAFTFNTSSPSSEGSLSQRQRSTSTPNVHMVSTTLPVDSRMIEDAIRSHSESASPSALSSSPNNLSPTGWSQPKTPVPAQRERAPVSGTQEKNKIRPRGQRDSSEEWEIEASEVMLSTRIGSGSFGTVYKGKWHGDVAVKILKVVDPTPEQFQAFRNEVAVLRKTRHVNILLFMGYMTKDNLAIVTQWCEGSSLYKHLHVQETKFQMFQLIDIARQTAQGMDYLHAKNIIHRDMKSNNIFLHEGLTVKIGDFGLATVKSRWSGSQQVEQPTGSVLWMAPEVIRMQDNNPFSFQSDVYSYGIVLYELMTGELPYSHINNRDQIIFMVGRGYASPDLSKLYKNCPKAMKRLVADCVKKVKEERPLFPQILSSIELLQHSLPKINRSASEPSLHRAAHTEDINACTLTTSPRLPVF

Row | SMILES | IC50
1 | COc1nnc(-c2cc(C(=O)Nc3ccnc(C(F)(F)F)c3)ccc2C)cc1N1CCOCC1 [Example 1018] | 0.57 nM
2 | COc1nnc(-c2cc(C(=O)Nc3ccnc(C(C)(F)F)c3)ccc2C)cc1N1CCOCC1 [Example 1019, N-(2-(1,1-difluoroethyl)pyridin-4-yl)-3-(6-methoxy-5-morpholinopyridazin-3-yl)-4-methylbenzamide] | 0.38 nM
3 | CCOc1nnc(-c2cc(C(=O)Nc3ccnc(C(C)(F)F)c3)ccc2C)cc1N1CCOCC1 [Example 1020, N-(2-(1,1-difluoroethyl)pyridin-4-yl)-3-(6-ethoxy-5-morpholinopyridazin-3-yl)-4-methylbenzamide] | 2.2 nM
4 | Cc1ncc(NC(=O)c2cccc(C(F)(F)F)c2)cc1-c1cnc(O[C@H](C)CO)c(N2CCOCC2)c1 [Example 1021, (R)—N-(6′-((1-hydroxypropan-2-yl)oxy)-2-methyl-5′-morpholino-[3,3′-bipyridin]-5-yl)-3-(trifluoromethyl)benzamide] | 0.69 nM
5 | Cc1ncc(NC(=O)c2cccc(C(F)(F)F)c2)cc1-c1cnc(OC[C@H](C)O)c(N2CCOCC2)c1 [Example 1022, (S)—N-(6′-(2-hydroxypropoxy)-2-methyl-5′-morpholino-[3,3′-bipyridin]-5-yl)-3-(trifluoromethyl)benzamide] | 0.37 nM
6 | Cc1ccc(NC(=O)c2ccnc(C(C)(F)F)c2)cc1-c1cc(NC[C@@H](C)O)nc(N2CCOCC2)n1 [Example 1024] | 1.04 nM
7 | Cc1ccc(NC(=O)c2ccnc(C(C)(C)F)c2)cc1-c1cc(NC[C@@H](C)O)nc(N2CCOCC2)n1 [Example 1025, (R)-2-(2-fluoropropan-2-yl)-N-(3-(6-((2-hydroxypropyl)amino)-2-morpholinopyrimidin-4-yl)-4-methylphenyl)isonicotinamide] | 1.97 nM
8 | Cc1ccc(NC(=O)c2ccnc(C(C)(C)C#N)c2)cc1-c1cc(NC[C@@H](C)O)nc(N2CCOCC2)n1 [Example 1026, (R)-2-(2-cyanopropan-2-yl)-N-(3-(6-((2-hydroxypropyl)amino)-2-morpholinopyrimidin-4-yl)-4-methylphenyl)isonicotinamide] | 2.9 nM
9 | CCOc1ccc(-c2cc(NC(=O)c3ccnc(C(C)(C)F)c3)cnc2C)nc1N1CCOCC1 [Example 1027, N-(5-ethoxy-2′-methyl-6-morpholino-[2,3′-bipyridin]-5′-yl)-2-(2-fluoropropan-2-yl)isonicotinamide] | 1.79 nM
10 | CCOc1ccc(-c2cc(NC(=O)c3ccnc(C(C)(F)F)c3)cnc2C)nc1N1CCOCC1 [Example 1028, 2-(1,1-difluoroethyl)-N-(5-ethoxy-2′-methyl-6-morpholino-[2,3′-bipyridin]-5′-yl)isonicotinamide] | 1.6 nM
11 | Cc1ncc(NC(=O)c2cccc(C(F)(F)F)c2)cc1-c1cnc(OCCOCCO)c(N2CCOCC2)c1 [Example 1033, N-(6′-(2-(2-hydroxyethoxy)ethoxy)-2-methyl-5′-morpholino-[3,3-bipyridin]-5-yl)-3-(trifluoromethyl)benzamide] | 0.59 nM
12 | Cc1ncc(NC(=O)c2cccc(C(F)(F)F)c2)cc1-c1cnc(OC2CCS(=O)(=O)CC2)c(N2CCOCC2)c1 [Example 1034, N-(6′-((1,1-dioxidotetrahydro-2H-thiopyran-4-yl)oxy)-2-methyl-5′-morpholino-[3,3′-bipyridin]-5-yl)-3-(trifluoromethyl)benzamide] | 0.46 nM
13 | Cc1ccc(NC(=O)c2cccc(C(F)F)c2)cc1-c1cc(NCCO)nc(N2CCOCC2)c1 [Example 1036, 3-(difluoromethyl)-N-(3-(2-((2-hydroxyethyl)amino)-6-morpholinopyridin-4-yl)-4-methylphenyl)benzamide] | 0.15 nM
14 | Cc1ccc(NC(=O)c2ccnc(C(C)(F)F)c2)cc1-c1cc(NCCO)nc(N2CCOCC2)c1 [Example 1037, 2-(1,1-difluoroethyl)-N-(3-(2-((2-hydroxyethyl)amino)-6-morpholinopyridin-4-yl)-4-methylphenyl)isonicotinamide] | 0.3 nM
15 | Cc1ncc(NC(=O)c2cccc(C(F)F)c2)cc1-c1cc(NCCO)nc(N2CCOCC2)c1 [Example 1038, 3-(difluoromethyl)-N-(2′-((2-hydroxyethyl)amino)-2-methyl-6′-morpholino-[3,4′-bipyridin]-5-yl)benzamide] | 0.45 nM
16 | Cc1ncc(NC(=O)c2ccnc(C(F)F)c2)cc1-c1cc(NCCO)nc(N2CCOCC2)c1 [Example 1039, 2-(difluoromethyl)-N-(2′-((2-hydroxyethyl)amino)-2-methyl-6′-morpholino-[3,4′-bipyridin]-5-yl)isonicotinamide] | 0.96 nM
17 | Cc1ncc(NC(=O)c2ccnc(C(F)(F)F)c2)cc1-c1cc(NCCO)nc(N2CCOCC2)c1 [Example 1040, N-(2′-((2-hydroxyethyl)amino)-2-methyl-6′-morpholino-[3,4′-bipyridin]-5-yl)-2-(trifluoromethyl)isonicotinamide] | 0.68 nM

Row | SMILES | IC50
18 | Cc1ncc(NC(=O)c2ccnc(C(C)(F)F)c2)cc1-c1cc(NCCO)nc(N2CCOCC2)c1 [Example 1041, 2-(1,1-difluoroethyl)-N-(2′-((2-hydroxyethyl)amino)-2-methyl-6′-morpholino-[3,4′-bipyridin]-5-yl)isonicotinamide] | 0.74 nM
19 | Cc1ncc(NC(=O)c2ccnc(C(C)(C)C#N)c2)cc1-c1cc(NCCO)nc(N2CCOCC2)c1 [Example 1042, 2-(2-cyanopropan-2-yl)-N-(2′-((2-hydroxyethyl)amino)-2-methyl-6′-morpholino-[3,4′-bipyridin]-5-yl)isonicotinamide] | 5.04 nM
20 | Cc1ncc(NC(=O)c2ccnc(S(C)(=O)=O)c2)cc1-c1cc(NCCO)nc(N2CCOCC2)c1 [Example 1043, N-(2′-((2-hydroxyethyl)amino)-2-methyl-6′-morpholino-[3,4′-bipyridin]-5-yl)-2-(methylsulfonyl)isonicotinamide] | 3.71 nM
21 | CCn1cc(C(=O)Nc2cnc(C)c(-c3cc(NCCO)nc(N4CCOCC4)c3)c2)cc(C(F)(F)F)c1=O [Example 1044, 1-ethyl-N-(2′-((2-hydroxyethyl)amino)-2-methyl-6′-morpholino-[3,4′-bipyridin]-5-yl)-6-oxo-5-(trifluoromethyl)-1,6-dihydropyridine-3-carboxamide] | 4.67 nM
22 | CCN1CCN(c2cc(C(=O)Nc3cnc(C)c(-c4cc(NCCO)nc(N5CCOCC5)c4)c3)cc(C(F)(F)F)c2)CC1 [Example 1045, 3-(4-ethylpiperazin-1-yl)-N-(2′-((2-hydroxyethyl)amino)-2-methyl-6′-morpholino-[3,4′-bipyridin]-5-yl)-5-(trifluoromethyl)benzamide] | 8.18 nM
23 | Cc1ncc(NC(=O)c2ccnc(C(C)(C)O)c2)cc1-c1cc(NCCO)nc(N2CCOCC2)c1 [Example 1046, N-(2′-((2-hydroxyethyl)amino)-2-methyl-6′-morpholino-[3,4′-bipyridin]-5-yl)-2-(2-hydroxypropan-2-yl)isonicotinamide] | 10.6 nM
24 | Cc1ccc(NC(=O)c2cnnc(C(F)(F)F)c2)cc1-c1cc(NCCO)nc(N2CCOCC2)c1 [Example 1047, N-(3-(2-((2-hydroxyethyl)amino)-6-morpholinopyridin-4-yl)-4-methylphenyl)-6-(trifluoromethyl)pyridazine-4-carboxamide] | 0.51 nM
25 | Cc1ccc(NC(=O)c2cnnc(C(C)(C)C#N)c2)cc1-c1cc(NCCO)nc(N2CCOCC2)c1 [Example 1049, 6-(2-cyanopropan-2-yl)-N-(3-(2-((2-hydroxyethyl)amino)-6-morpholinopyridin-4-yl)-4-methylphenyl)pyridazine-4-carboxamide] | 1.14 nM
26 | Cc1ccc(NC(=O)c2ccnc(C3(C#N)CC3)c2)cc1-c1cc(NCCO)nc(N2CCOCC2)c1 [Example 1050, 2-(1-cyanocyclopropyl)-N-(3-(2-((2-hydroxyethyl)amino)-6-morpholinopyridin-4-yl)-4-methylphenyl)isonicotinamide] | 0.26 nM
27 | Cc1ncc(NC(=O)c2cnnc(C(F)(F)F)c2)cc1-c1cc(NCCO)nc(N2CCOCC2)c1 [Example 1051, N-(2′-((2-hydroxyethyl)amino)-2-methyl-6′-morpholino-[3,4′-bipyridin]-5-yl)-6-(trifluoromethyl)pyridazine-4-carboxamide] | 1.04 nM
28 | Cc1ncc(NC(=O)c2cnnc(C3CC3)c2)cc1-c1cc(NCCO)nc(N2CCOCC2)c1 [Example 1052, 6-cyclopropyl-N-(2′-((2-hydroxyethyl)amino)-2-methyl-6′-morpholino-[3,4′-bipyridin]-5-yl)pyridazine-4-carboxamide] | 1.48 nM
29 | Cc1ccc(NC(=O)c2ccnc(C(F)F)c2)cc1-c1cc(NCCO)nc(N2CCOCC2)c1 [Example 1053, 2-(difluoromethyl)-N-(3-(2-((2-hydroxyethyl)amino)-6-morpholinopyridin-4-yl)-4-methylphenyl)isonicotinamide] | 0.2 nM
30 | Cc1ccc(NC(=O)c2ccnc(C(F)(F)F)c2)cc1-c1cc(NC2CCOC2)nc(N2CCOCC2)c1 (stereo not drawn) [Example 1054, N-(4-methyl-3-(2-morpholino-6-((tetrahydrofuran-3-yl)amino)pyridin-4-yl)phenyl)-2-(trifluoromethyl)isonicotinamide] | 0.33 nM
31 | Cc1ccc(NC(=O)c2ccnc(C(F)(F)F)c2)cc1-c1cc(NCC2CCOC2)nc(N2CCOCC2)c1 (stereo not drawn) [Example 1055, N-(4-methyl-3-(2-morpholino-6-(((tetrahydrofuran-3-yl)methyl)amino)pyridin-4-yl)phenyl)-2-(trifluoromethyl)isonicotinamide] | 0.38 nM
32 | Cc1ncc(NC(=O)c2ccnc(C(C)(C)F)c2)cc1-c1cc(NCCO)nc(N2CCOCC2)c1 [Example 1056, 2-(2-fluoropropan-2-yl)-N-(2′-((2-hydroxyethyl)amino)-2-methyl-6′-morpholino-[3,4′-bipyridin]-5-yl)isonicotinamide] | 2.19 nM
33 | Cc1ncc(NC(=O)c2ccnc(C3CC3)c2)cc1-c1cc(NCCO)nc(N2CCOCC2)c1 [Example 1057, 2-cyclopropyl-N-(2′-((2-hydroxyethyl)amino)-2-methyl-6′-morpholino-[3,4′-bipyridin]-5-yl)isonicotinamide] | 0.81 nM

— patent publication US9694016B2 (Novartis AG, priority 2013, dated 2017)
